The entries are a selection whose mix differs from that of the whole data set. Some structures show a salt or complex split into parts, the way the source records it. Calls of active or inactive are those of the source. Cut-off read from the data, not from the text of the source: active = activity change below about -25%; inactive = the rest.
% is set by controls: 0 for no effect and ±100 for the full control effect.

The chains behind the UniProt entries cited, without tags or fusion partners.
UniProt Q92551, whole entry: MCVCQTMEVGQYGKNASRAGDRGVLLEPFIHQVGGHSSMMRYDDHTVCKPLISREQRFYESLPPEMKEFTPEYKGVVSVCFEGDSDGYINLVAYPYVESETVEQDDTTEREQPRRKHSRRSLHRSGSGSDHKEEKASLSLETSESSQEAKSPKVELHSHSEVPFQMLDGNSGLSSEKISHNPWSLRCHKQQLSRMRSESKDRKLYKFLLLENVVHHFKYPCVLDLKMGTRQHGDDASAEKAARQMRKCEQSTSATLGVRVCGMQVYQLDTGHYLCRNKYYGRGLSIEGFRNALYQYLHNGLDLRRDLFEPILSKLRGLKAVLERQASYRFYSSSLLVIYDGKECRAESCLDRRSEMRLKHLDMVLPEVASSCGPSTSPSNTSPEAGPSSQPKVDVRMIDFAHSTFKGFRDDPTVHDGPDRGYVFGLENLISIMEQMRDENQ

This experiment has as its target Inositol hexakisphosphate kinase 1 (Homo sapiens) (UniProt Q92551). Briefly: Primary qHTS assay for small molecule inhibitors of Inositol hexaphosphate kinase 1 (IP6K1). Note: series mostly up to about 58 µM. As to conditions: ADP-Glo luminescence, 2 h, stronger effect = lower value. The text has this: Assay Provider: Huijun Wei, M.S., Ph.D. School of Medicine, Johns Hopkins University, Baltimore, MD Inositol hexakisphosphate kinases (IP6Ks) catalyze pyrophosphorylation of inositol hexakisphosphate (IP6) into inositol 5-diphospho-1,2,3,4,6-pentakisphosphate (IP7), which is involved in numerous areas of cell physiology including glucose homeostasis, blood coagulation and neurological development. Inhibition of IP6Ks may be effective for the treatment of Type II diabetes, thrombosis, and psychiatric disorders. We performed a quantitative high throughput screen (qHTS) of 158,410 compounds for IP6K1 inhibitors using ankinase activity ADP-Glo Max assay. […] Medicinal chemistry SAR efforts in three chemical series identified potent IP6K1 inhibitors, which were further validated in an orthogonal LC-MS IP7 analysis.
PROTOCOL TABLE SEQUENCE No. (e.g., 1, 2, 3, etc.); […] (e.g., Cells, Incubation, Reagent, etc.); VALUE and DESCRIPTION. 1. Reagent, 3 uL of 1.3 mM ATP and 130 uM IP6 mixture in assay buffer was dispensed to a white, 1536-well assay plate. 2. Compound, 23 nL of compounds of the top two doses (57.5 uM and 19.1 uM final concentration) of the libraries were dispensed into the mixture using the Kalypsis pintool. 3. Reagent, 1 uL of 2.4 uM IP6K1 was dispensed to the assay plates. 4. Incubation, 2 hr incubation at room temperature. 5. Reagent, 2 uL of ADP-Glo reagent was added to the wells. 6. Incubation, 1 hr incubation at room temperature. 7. Reagent, 4 uL or ADP-Glo substate was added to the wells. 8. Incubation, 45 min incubation at room temperature. 9. Detection, luminescence signal was detected using the ViewLux microplate imager (PerkinElmer).
In general terms: In qHTS, concentration-response curves come from the screen itself.
As for `O=[N+]([O-])c1cccc([N+](=O)[O-])c1`, the activity change was inactive: -12.5%.
Regarding `C/C1=C2N=C(/C=C3N=C(/C(C)=C4\N=C(C(CC(N)=O)C4(C)CCC(=O)NCC(C)OP(=O)([O-])OC4C(CO)OC(n5cnc6cc(C)c(C)cc65)C4O)C4(C)N=C1C(CCC(N)=O)C4(C)CC(N)=O)C(CCC(N)=O)C\3(C)C)C(CCC(N)=O)C/2(C)CC(N)=O.[C-]#N.[Co]` (stereo unspecified), the activity change was inactive: 7.09%.
The same measure for `OCCSCCO`: inactive: 31.2%.
Consider `C/C1=C2N=C(/C=C3N=C(/C(C)=C4\[N-][C@@](C)([C@@H]5N=C1[C@](C)(CCC(=O)NC[C@@H](C)OP(=O)([O-])O[C@H]1[C@@H](O)[C@@H](n6cnc7cc(C)c(C)cc76)O[C@@H]1CO)[C@H]5CC(N)=O)[C@@](C)(CC(N)=O)[C@@H]4CCC(N)=O)[C@@](C)(CC(N)=O)[C@@H]\3CCC(N)=O)C(C)(C)[C@@H]/2CCC(N)=O.[C-]#N.[Co+3]`, for which the activity change was inactive: -6.11%.
On to `Cc1cccc([N+](=O)[O-])c1[N+](=O)[O-]`, for which the activity change is inactive: -11%.
Turning to `CCOP(=O)(CC)Oc1ccc([N+](=O)[O-])cc1` (stereo unspecified), the activity change is inactive: -5.99%.
